The numbers were not newly measured in US12605367B2, “Methods of treatment and/or prevention of disorders and symptoms related to BKCa and/or SK channelophathies” (UNIVERSITE DE BORDEAUX, priority 2019, dated 2026), which cites them from elsewhere.

The data set has as its system autistic children. Conditions: cited from earlier work.

For the molecule `Cc1nc2n(c(=O)c1CCN1CCC(c3noc4cc(F)ccc34)CC1)CCCC2` [risperidone], the adverse events entry was “weight gain, increased appetite, fatigue, drowsiness, dizziness, and drooling”.
